{"sequences": {"note": "The chains behind the UniProt entries cited, without tags or fusion partners. Where a name states a change or a piece, a line headed by the entry shows the natural chain unless it says otherwise.", "UniProt P11229": "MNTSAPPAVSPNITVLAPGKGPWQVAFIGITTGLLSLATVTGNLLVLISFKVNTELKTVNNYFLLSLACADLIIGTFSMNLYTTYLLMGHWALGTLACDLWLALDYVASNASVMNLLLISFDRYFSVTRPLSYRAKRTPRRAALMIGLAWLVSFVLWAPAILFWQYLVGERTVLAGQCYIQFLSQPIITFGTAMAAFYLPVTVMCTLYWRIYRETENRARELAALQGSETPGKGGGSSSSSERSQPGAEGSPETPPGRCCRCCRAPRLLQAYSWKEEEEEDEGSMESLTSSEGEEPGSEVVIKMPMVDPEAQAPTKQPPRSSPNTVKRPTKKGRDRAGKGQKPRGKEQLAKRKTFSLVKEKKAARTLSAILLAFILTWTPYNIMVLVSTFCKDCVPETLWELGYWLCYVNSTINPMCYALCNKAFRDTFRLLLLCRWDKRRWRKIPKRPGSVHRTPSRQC", "UniProt P21397, whole entry": "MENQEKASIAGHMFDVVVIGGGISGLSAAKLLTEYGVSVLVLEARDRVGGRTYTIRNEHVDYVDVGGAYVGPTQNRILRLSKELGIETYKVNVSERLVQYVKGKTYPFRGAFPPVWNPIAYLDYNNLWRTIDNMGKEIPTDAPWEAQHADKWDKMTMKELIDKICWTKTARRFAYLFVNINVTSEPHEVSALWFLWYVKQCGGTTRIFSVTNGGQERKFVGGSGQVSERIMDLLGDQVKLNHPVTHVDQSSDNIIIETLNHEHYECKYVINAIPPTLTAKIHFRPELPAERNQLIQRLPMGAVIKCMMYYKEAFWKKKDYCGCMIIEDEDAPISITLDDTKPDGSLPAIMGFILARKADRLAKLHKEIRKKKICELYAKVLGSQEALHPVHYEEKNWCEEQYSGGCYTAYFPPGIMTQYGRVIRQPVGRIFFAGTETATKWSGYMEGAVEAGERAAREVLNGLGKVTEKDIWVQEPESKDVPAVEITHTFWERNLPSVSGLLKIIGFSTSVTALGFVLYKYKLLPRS", "UniProt P23219, whole entry": "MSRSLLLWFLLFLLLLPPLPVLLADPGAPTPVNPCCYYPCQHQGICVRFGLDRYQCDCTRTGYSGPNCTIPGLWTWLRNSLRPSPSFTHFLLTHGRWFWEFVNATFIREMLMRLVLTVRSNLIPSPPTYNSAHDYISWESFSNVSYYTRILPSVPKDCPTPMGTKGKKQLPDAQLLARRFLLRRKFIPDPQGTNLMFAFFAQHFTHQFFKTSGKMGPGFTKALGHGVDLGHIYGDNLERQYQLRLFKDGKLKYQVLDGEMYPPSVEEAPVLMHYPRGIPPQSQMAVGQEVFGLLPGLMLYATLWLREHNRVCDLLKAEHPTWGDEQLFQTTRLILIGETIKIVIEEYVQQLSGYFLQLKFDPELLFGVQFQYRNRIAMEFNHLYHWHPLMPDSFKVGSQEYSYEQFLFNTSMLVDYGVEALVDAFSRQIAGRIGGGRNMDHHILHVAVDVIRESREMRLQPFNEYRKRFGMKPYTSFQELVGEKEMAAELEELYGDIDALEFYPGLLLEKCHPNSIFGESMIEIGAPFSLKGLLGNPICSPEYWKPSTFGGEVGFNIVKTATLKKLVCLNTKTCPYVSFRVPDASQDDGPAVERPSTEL", "UniProt Q12809": "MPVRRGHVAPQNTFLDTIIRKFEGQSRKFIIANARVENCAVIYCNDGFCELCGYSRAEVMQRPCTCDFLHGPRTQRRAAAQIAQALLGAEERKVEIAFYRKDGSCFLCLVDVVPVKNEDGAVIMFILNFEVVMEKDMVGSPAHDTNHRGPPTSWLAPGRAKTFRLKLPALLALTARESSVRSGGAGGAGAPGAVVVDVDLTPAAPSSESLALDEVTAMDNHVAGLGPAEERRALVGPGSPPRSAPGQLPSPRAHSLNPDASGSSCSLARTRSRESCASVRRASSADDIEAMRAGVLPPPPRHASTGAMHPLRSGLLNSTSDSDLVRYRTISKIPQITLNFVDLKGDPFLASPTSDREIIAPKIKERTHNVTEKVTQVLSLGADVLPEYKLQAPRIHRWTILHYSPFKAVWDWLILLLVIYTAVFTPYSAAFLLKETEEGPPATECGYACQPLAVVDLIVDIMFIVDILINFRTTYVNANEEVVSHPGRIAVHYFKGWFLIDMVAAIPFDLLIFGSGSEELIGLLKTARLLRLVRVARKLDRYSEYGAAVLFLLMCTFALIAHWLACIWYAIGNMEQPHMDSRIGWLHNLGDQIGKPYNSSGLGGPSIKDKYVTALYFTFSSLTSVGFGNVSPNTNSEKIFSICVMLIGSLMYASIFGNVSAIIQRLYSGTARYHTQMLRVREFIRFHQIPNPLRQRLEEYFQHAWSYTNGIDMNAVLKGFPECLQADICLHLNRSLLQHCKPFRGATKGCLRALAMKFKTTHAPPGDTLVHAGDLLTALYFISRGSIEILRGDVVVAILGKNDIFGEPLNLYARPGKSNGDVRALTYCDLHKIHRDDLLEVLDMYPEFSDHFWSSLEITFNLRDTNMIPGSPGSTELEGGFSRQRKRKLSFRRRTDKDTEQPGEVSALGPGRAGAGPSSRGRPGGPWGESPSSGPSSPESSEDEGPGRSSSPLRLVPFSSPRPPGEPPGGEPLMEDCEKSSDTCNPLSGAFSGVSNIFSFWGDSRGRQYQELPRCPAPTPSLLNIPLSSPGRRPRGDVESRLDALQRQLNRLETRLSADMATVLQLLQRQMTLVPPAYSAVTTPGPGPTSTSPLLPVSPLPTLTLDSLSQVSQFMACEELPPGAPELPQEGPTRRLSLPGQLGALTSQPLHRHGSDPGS", "UniProt Q14524, whole entry": "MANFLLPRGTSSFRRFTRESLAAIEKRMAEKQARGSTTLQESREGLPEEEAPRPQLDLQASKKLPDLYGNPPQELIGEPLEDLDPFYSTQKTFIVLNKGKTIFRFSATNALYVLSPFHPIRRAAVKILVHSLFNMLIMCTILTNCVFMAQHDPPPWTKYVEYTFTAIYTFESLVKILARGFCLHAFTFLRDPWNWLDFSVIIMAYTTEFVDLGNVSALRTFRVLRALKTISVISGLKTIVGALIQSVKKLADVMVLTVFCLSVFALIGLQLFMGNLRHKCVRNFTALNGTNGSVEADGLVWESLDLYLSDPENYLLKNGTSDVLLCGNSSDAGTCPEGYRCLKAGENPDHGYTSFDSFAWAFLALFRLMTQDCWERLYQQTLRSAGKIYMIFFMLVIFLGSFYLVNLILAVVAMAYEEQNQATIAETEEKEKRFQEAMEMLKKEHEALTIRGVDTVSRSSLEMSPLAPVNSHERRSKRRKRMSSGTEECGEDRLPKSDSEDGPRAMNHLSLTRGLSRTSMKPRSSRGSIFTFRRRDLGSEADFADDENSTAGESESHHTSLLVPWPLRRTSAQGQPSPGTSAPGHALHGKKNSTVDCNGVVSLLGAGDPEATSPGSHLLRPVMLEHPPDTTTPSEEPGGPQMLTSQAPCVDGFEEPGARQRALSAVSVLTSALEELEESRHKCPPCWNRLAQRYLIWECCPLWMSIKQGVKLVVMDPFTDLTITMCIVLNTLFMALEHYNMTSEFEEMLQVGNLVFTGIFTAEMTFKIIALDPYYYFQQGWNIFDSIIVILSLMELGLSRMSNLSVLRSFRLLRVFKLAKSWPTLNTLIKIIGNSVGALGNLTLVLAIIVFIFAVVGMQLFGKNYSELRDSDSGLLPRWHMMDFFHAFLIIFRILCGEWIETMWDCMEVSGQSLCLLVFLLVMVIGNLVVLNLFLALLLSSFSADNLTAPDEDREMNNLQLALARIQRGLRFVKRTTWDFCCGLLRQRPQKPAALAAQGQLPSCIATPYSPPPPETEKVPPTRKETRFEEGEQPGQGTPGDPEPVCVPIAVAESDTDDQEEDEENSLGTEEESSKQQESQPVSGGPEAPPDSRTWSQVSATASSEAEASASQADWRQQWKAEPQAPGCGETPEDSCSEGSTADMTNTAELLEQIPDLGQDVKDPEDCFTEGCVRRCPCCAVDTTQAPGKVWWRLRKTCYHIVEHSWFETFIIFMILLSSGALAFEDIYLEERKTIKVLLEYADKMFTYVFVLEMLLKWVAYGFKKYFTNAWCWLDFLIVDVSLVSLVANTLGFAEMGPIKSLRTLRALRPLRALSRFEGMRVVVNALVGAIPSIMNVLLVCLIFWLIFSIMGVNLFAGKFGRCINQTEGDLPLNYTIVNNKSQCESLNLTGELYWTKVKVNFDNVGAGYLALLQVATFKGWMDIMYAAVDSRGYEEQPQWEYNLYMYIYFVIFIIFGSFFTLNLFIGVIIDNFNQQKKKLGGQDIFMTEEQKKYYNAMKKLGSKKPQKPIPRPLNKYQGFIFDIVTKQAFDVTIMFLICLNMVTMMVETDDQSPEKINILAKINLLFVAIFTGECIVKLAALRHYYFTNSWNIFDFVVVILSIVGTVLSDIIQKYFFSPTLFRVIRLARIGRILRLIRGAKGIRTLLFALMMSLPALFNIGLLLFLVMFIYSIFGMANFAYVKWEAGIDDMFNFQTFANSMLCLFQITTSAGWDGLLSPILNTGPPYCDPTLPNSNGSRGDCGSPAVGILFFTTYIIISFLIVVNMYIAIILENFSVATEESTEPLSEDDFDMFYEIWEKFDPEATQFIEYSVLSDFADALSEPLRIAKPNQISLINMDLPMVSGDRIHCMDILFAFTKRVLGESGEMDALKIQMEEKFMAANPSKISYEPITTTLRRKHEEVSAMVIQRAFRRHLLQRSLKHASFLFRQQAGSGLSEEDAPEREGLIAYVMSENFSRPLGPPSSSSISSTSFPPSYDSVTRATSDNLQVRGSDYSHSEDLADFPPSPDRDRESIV", "UniProt P22303": "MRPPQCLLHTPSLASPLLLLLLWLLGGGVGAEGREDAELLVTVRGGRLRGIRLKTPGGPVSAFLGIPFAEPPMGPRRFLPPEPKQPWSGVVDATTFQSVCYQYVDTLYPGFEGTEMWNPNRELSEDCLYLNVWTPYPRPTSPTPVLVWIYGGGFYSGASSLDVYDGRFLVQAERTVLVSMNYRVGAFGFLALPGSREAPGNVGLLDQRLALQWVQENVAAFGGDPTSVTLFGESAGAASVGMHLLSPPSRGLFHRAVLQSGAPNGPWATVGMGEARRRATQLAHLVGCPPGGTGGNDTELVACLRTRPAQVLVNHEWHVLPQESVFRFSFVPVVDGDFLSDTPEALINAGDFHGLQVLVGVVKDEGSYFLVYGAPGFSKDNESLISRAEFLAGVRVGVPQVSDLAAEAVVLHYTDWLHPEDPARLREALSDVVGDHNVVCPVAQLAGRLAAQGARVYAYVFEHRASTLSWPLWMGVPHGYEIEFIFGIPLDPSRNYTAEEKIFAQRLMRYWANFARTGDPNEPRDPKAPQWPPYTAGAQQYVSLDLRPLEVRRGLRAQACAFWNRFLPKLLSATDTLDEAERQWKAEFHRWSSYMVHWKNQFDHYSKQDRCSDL", "UniProt P28335": "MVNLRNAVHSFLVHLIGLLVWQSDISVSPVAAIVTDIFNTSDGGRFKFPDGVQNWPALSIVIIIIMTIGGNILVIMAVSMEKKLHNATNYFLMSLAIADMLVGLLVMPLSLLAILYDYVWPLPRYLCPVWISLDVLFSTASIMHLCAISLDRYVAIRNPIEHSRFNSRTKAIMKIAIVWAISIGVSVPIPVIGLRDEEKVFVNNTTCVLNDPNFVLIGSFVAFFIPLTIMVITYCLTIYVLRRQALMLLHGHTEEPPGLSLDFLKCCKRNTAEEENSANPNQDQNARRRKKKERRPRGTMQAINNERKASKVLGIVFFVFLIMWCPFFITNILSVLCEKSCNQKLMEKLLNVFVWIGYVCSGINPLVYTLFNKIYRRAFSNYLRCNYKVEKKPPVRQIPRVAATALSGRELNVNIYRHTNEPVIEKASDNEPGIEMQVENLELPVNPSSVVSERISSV", "UniProt P08908, whole entry": "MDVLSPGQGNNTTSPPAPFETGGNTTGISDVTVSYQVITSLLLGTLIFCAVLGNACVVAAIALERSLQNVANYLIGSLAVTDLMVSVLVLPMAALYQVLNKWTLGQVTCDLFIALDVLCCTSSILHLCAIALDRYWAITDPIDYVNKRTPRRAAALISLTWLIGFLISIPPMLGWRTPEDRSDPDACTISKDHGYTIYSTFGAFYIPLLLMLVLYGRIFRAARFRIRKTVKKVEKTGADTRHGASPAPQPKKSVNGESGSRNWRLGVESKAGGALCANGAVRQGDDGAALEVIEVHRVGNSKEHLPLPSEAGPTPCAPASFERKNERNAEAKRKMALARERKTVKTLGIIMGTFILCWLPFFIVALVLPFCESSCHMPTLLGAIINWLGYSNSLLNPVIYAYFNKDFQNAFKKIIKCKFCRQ"}, "source": "ChEMBL document CHEMBL5291721", "about": "“A preclinical secondary pharmacology resource illuminates target-adverse drug reaction associations of marketed drugs” (Nat Commun, 2023)", "key": {"[1]": {"target": "Muscarinic acetylcholine receptor M1 (Homo sapiens, UniProt P11229)", "assay_type": "functional"}, "[2]": {"target": "Glutamate receptor ionotropic, NMDA 1 (Rattus norvegicus, UniProt P35439)"}, "[3]": {"target": "T1, Amine oxidase [flavin-containing] A (Homo sapiens, UniProt P21397)", "assay_type": "functional"}, "[4]": {"target": "T1, Amine oxidase [flavin-containing] A", "assay_type": "functional", "remark": "listed apart in the source"}, "[5]": {"target": "Prostaglandin G/H synthase 1 (Homo sapiens, UniProt P23219)", "assay_type": "functional"}, "[6]": {"target": "Voltage-gated inwardly rectifying potassium channel KCNH2 (Homo sapiens, UniProt Q12809)"}, "[7]": {"target": "Sodium channel protein type 5 subunit alpha (Homo sapiens, UniProt Q14524)", "assay_type": "functional, cell-based"}, "[8]": {"target": "Acetylcholinesterase (Homo sapiens, UniProt P22303)", "assay_type": "functional"}, "[9]": {"target": "5-hydroxytryptamine receptor 2C (Homo sapiens, UniProt P28335)"}, "[10]": {"target": "T2, 5-hydroxytryptamine receptor 1A (Homo sapiens, UniProt P08908)", "assay_type": "functional, cell-based"}, "[11]": {"target": "T2, 5-hydroxytryptamine receptor 1A"}, "[12]": {"target": "T2, 5-hydroxytryptamine receptor 1A", "remark": "listed apart in the source"}}, "note": "“And” between values parts separate entries of the source, which are not always exact repeats. Equal values may be shown once. Note: assay procedure not described here."}
{"compound": "C=CC[N@@+]12CC[C@@]34c5ccccc5N5/C=C6/[C@H]7C[C@H]8[C@@]9(CC[N@@+]8(CC=C)C/C7=C/CO)c7ccccc7N(/C=C(/[C@@H](C[C@@H]31)/C(=C\\CO)C2)[C@H]54)[C@@H]69", "note": "[ALCURONIUM]", "values": [{"measurement": "AC50", "setting": "[1]", "result": "> 30", "unit": "µM"}]}
{"compound": "CC12CC3CC(C)(C1)CC(N)(C3)C2", "note": "[MEMANTINE]", "values": [{"measurement": "AC50", "setting": "[2]", "result": 3.94, "unit": "µM"}]}
{"compound": "C#CCN(C)Cc1ccccc1", "note": "[PARGYLINE]", "values": [{"measurement": "AC50", "setting": "[3]", "result": 5.8, "unit": "µM"}, {"measurement": "AC50", "setting": "[4]", "result": 3.11, "unit": "µM"}]}
{"compound": "CN1C(C(=O)Nc2ccccn2)=C(O)c2ccccc2S1(=O)=O", "note": "[PIROXICAM]", "values": [{"measurement": "AC50", "setting": "[5]", "result": 22.4, "unit": "µM"}]}
{"compound": "N[C@@H](CC(=O)N1CCn2c(nnc2C(F)(F)F)C1)Cc1cc(F)c(F)cc1F", "note": "[SITAGLIPTIN]", "values": [{"measurement": "AC50", "setting": "[6]", "result": "> 30", "unit": "µM"}]}
{"compound": "CCN(CC)CCNC(=O)c1c(C)[nH]c(/C=C2\\C(=O)Nc3ccc(F)cc32)c1C", "note": "[SUNITINIB]", "values": [{"measurement": "AC50", "setting": "[7]", "result": 27, "unit": "µM"}]}
{"compound": "COc1cc(C(=O)NCc2ccc(OCCN(C)C)cc2)cc(OC)c1OC", "note": "[TRIMETHOBENZAMIDE]", "values": [{"measurement": "AC50", "setting": "[8]", "result": 3.22, "unit": "µM"}]}
{"compound": "COC(=O)[C@@H]1[C@H]2C[C@H]3c4[nH]c5ccccc5c4CCN3C[C@@H]2CC[C@@H]1O", "note": "[YOHIMBINE]", "values": [{"measurement": "AC50", "setting": "[9]", "result": "> 30", "unit": "µM"}, {"measurement": "AC50", "setting": "[10]", "result": 240, "unit": "nM"}, {"measurement": "AC50", "setting": "[11]", "result": 75.2, "unit": "nM"}, {"measurement": "AC50", "setting": "[12]", "result": "644 nM and 66.1 nM"}]}
